The source of these data is ChEMBL document CHEMBL5726152, “Heterocyclic compounds, process for preparation of the same and use thereof” (2019).

Chains of the proteins cited; added tags and fusions are not shown.
UniProt P14416, whole entry: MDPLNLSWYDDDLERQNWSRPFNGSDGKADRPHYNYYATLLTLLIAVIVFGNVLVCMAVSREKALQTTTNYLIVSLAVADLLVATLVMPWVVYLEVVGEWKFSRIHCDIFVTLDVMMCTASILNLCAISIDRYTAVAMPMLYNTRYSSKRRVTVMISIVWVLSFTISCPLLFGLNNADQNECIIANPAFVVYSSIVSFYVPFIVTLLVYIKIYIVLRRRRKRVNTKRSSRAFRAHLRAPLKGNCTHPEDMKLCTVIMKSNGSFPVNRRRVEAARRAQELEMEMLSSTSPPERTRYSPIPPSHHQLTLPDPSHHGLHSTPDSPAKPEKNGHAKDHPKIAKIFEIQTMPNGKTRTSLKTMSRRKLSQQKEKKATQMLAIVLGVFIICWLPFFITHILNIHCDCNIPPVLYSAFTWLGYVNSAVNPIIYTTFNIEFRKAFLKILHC

Molecules are shown by their SMILES.

The test has as its target D(2) dopamine receptor (Homo sapiens, UniProt P14416). The test is classed as cell-based.

As usually defined, the IC50 is the midpoint of a concentration-inhibition curve. Turning to `O=c1ccc2ccc(CCCCCN3CCN(c4cccc5sccc45)CC3)cc2[nH]1`, the midpoint of inhibition, the IC50, lay at 2.06 nM.
